Here are results for five compounds from PMC11856326, “Structure-activity studies of bispyridinium antinicotinics to select candidates to treat soman intoxication as part of a combined therapy” (2025).

Molecules are shown by their SMILES. Values joined by “and” are separate entries in the source; they are usually repeats but may differ in a detail not shown here. Equal entries are not always repeated. Where two headings read alike, the source gives them in different places.

Data set [1] relates to human muscle nicotinic receptor (foetal and adult forms) in CN21 cells. To be noted: cited from earlier work.
For the next data set, the system named is mice. The following applies: R = H column (also common oximes), cited from earlier work; for LD50 i.m. mice: number in brackets = i.m.; for LD50 i.v. mice: bispyridinium dibromides.
A further data set deals with guinea-pigs. In words: Adverse effects of MB442 without soman challenge. To be noted: 28.78 mg·kg^−1, no soman challenge.
The test system of data set [2] is human muscle nicotinic receptor (foetal and adult forms) in CN21 cells. Description: Nicotinic calcium response assay in CN21 cells (Fluo-4, response to ACh). The following applies: tert-butyl series R = C(CH3)3, mean ± SEM.
The conditions of data set [3]: plasma; cited from earlier work.

Take `NC(=O)c1cc[n+](COC[n+]2ccccc2/C=N/O)cc1`: in data set [1] (CN21 cell line), the “log IC50” value is on record as −2.76. Also, in the data set on mice, the LD50 i.m. mice was 671 mg/kg and the LD50 i.v. mice was 178 mg/kg.

As for `O/N=C/c1cc[n+](COC[n+]2ccc(/C=N/O)cc2)cc1`, in the data set on mice, the LD50 i.m. mice was 188 mg/kg and the LD50 i.v. mice is 70 mg/kg.

`c1cc[n+](CCCCC[n+]2ccccc2)cc1`: in the data set with guinea-pigs, the “adverse effects (apnoea, dyspnoea, flaccid paralysis), animals affected” value is reported as 1 out of 3. For the same compound, the “Log IC50 [M]” value in data set [1] (log10 value, unsubstituted series R = H, ACh 10 µM, mean ± SEM) is −2.56 ± 0.16 M. Further, the Hill slope in data set [1] (unsubstituted series R = H, mean ± SEM) is −0.60 and −0.60 ± 0.13.

Consider `COc1cc2c3cc1Oc1cc(ccc1O)C[C@@H]1c4c(cc(OC)c(O)c4Oc4ccc(cc4)C[C@@H]3N(C)CC2)CC[N+]1(C)C`, for which, in data set [1] (50 µM, atropine 20 µM present), the “block of the nicotinic Ca2+ response to ACh” value is on record as “blocked completely”.

As to `CC(C)(C)c1cc[n+](CCC[n+]2ccc(C(C)(C)C)cc2)cc1`, the “Log IC50 [M]” value in data set [2] (log10 value, inhibition of Ca2+ response to ACh 10 µM (~EC80), atropine 20 µM) was −2.86 ± 0.16 M. The Hill slope in data set [2] (ACh 10 µM) was −0.89 and −0.89 ± 0.10. For the same compound, the “half-life (t½)” value in data set [3] is ~ 22 min.

As a reminder, the Hill slope is the slope factor of the fitted curve.
